The values that follow come from ChEMBL document CHEMBL1143557, “Discovery of a fluoroindolo[2,3-a]carbazole clinical candidate with broad spectrum antitumor activity in preclinical tumor models superior to the marketed oncology drug, CPT-11” (J Med Chem, 2005).

The test system of experiment [1] is HT-29. Briefly: Antitumor activity against HT-29 human colon carcinoma xenograft model; Activity expressed as no. of cures by total (8). (A xenograft is tissue or cells of one species grown in another, often human tumour cells in immunodeficient mice.)
Experiment [2] relates to HT-29. Briefly: In vivo antitumor activity against HT-29 human colon carcinoma xenograft model when administered iv, (1:1:8 cremophor: ethanol: water vehicle) expressed as optimal effect in LCK.
The test system of experiment [3] is HT-29. Briefly: Optimal dose required for antitumor activity against HT-29 human colon carcinoma xenograft model when administered once a day iv dosing every other day for five doses (q2dx5,iv).

Regarding `CCc1c2c(cc3ncc(OC(=O)N4CCC(N5CCCCC5)CC4)cc13)C1=CC3=C(COC(=O)[C@]3(O)CC)C(O)N1C2` (stereo partly drawn), the No. of cures in experiment [1] turned out to be 0. For the same molecule, in experiment [2], the Activity was determined as 1.9. Also, in experiment [3], the Optimal dose came out at 50 mg.kg/inj.
